AlphaSeq binding of Ab-14 heavy chain variants to a spike HR2 peptide

The target is the same throughout: PDVDLGDISGINAS, from the HR2 region of SARS-CoV-2 spike.

The variants keep the light chain, the linker and the frameworks of Ab-14 (scFv order VH, a 15-residue (Gly4Ser)3 linker, VL).
VH: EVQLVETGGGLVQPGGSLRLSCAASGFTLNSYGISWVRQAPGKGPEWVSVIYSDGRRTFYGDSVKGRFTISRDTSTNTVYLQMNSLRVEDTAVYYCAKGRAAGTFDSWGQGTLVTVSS
VL: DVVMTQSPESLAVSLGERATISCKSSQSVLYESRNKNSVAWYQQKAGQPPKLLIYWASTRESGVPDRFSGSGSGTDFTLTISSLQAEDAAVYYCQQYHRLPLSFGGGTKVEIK

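Phage display of a naive human antibody library on the peptide gave the parent. This is the validation round: designs drawn from the data on random variants, tested in the same kind of assay. Group labels follow the data file (Ctrl: baseline library sampled from a position-specific scoring matrix, with some repeated check sequences; Rand: our label for a block that the file lists under HC and that is probably the random mutants of the ten best first-round binders; GP: Gaussian process model; GPLM: also part of the Gaussian process libraries; HC: hill climbing; Gen: genetic algorithm; Gibbs: Gibbs sampling; a sequence that several methods proposed may carry one label only). AlphaSeq pools MATa yeast showing the antibodies with MATalpha yeast showing the peptide. Binding brings cells together so that they mate, and sequencing counts the barcode pairs among the diploids. Each replicate has its own calibration line, from reference interactions of the BCL2 family. Each pool was mated in six replicate cultures.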

The parent's heavy chain CDRs are GFTLNSYGIS, VIYSDGRRTFYGDSVK, GRAAGTFDS; each variant's own CDRs replace them letter for letter. Variants here have at most six changes. Affinities are written as log10 Kd with Kd in nM; a lower number is a better binder. A mean of the replicates is given; it leaves out those without a signal. Where no diploid with the target was found in that replicate, the entry reads "nd": below detection, most likely a poor binder, though not proof of it. Where one sequence has several entries in the source, the replicates are listed entry by entry, parted by semicolons. The authors averaged sequences with at least three values out of six and counted those with two or fewer as poor binders. Three control strains display no target. For all heavy chain designs, 1% of the pairings with them gave a signal, with a median of 2.08 and one signal in twenty below 0.84, so weak values seen in few replicates may be background. Also given: how often the same scFv was detected with the empty control strains. The range of this assay differs from that of the first round, and the authors advise against merging the two. Of ten entries with the parent sequence, four were seen in most replicates (averages 0.34 to 2.37), three in one and three in none, so single entries are noisy.

The variant GFTLNSYGIS, VIYSDGRRVFYGDSVK, GRAAVVFDV [Ctrl] showed nd, nd, nd, nd, nd, nd (controls 1 of 18).
The variant GFTSNSYGYS, VIYADGRRTFYGDSVK, GRQAGTNKS [Rand] showed nd, nd, nd, nd, nd, nd (controls 0 of 18).
The variant GFTLNSYGIS, VIYSDGRRTAYGDRVK, GRAAGTFDS [Ctrl] showed nd, nd, 1.22, 1.47, nd, 1.42 (mean 1.37; controls 0 of 18).
The variant GFELESYGIS, VIYSDGRRTSYGDSVK, ERAAGTFDS [Ctrl] showed nd, nd, nd, nd, nd, nd (controls 0 of 18).
The variant GFDLNSYGIS, VIYSDGRRTFYRDAVK, GKTAGTFDS [GP_Gibbs] showed nd, nd, nd, nd, nd, nd (controls 0 of 18).
The variant GFDLNSYGIS, VIYSDGRRTFYGDDVK, GEAAGTFDK [GP_Gibbs] showed 0.99, 0.47, 0.24, -0.09, 0.37, 1.51 (mean 0.58; controls 0 of 18).
The variant GFTLNSYGIS, VIYSDGRRTFYADSVK, GEAAGTFDK [GPLM_Gen] showed 1.12, 0.14, 0.43, 0.64, 0.03, 0.61 (mean 0.50; controls 0 of 18).
The variant GFSLNRYGIS, VIYSDGRRTFYGDSVK, GRTAGTFDS [GPLM_Gen] showed 1.09, 1.41, 2.10, 1.08, 1.40, 2.71 (mean 1.63; controls 0 of 18).
The variant GFTLNEYGIS, VIYSDGRRTAYGDSVK, GYAAGQFDS [Ctrl] showed nd, nd, nd, nd, nd, 2.00 (controls 0 of 18).
The variant GFTLNSYGIS, VIYSDGRRTFYGDSVD, GRAAGTFGS [Ctrl] showed nd, nd, nd, nd, nd, nd (controls 1 of 18).
The variant GFTLNSYGIS, VIYSDGRRTFIDDSVK, GQLAGTFHS [Rand] showed nd, nd, nd, -0.32, nd, nd (controls 0 of 18).
The variant YFSLNDYGIS, VIYSDGRRTFYMDSVK, GRTAGTFDS [GP_Gibbs] showed nd, nd, 1.93, nd, nd, nd (controls 1 of 18).
The variant GFGLNSYGIS, VIYSDGRRTFYGDSVK, GNEAGTFDS [GP_Gibbs] showed 0.58, -0.10, -0.04, 0.09, -0.30, 0.34 (mean 0.10; controls 0 of 18).
The variant GFDLNSYGIS, VIYSDGRRTFYTDSVK, GKEAGTFDS [GP_Gen] showed -0.37, -0.57, -0.59, -0.51, -0.75, -0.21 (mean -0.50; controls 0 of 18).
The variant GFSLNMYGIS, VIYSDGRRTFYIDSVK, GNAAGTFDS [GP_Gibbs] showed 0.92, 1.51, 0.56, 0.46, 0.82, 0.94 (mean 0.87; controls 0 of 18).
The variant GFELNMYGIS, VIYSDGRRTFYSDSVK, GRTAGTFDS [GP_Gen] showed 0.03, -0.04, -0.40, -0.22, 0.16, -0.10 (mean -0.09; controls 1 of 18).
The variant GFTLNSYGIS, VIYSDGRRTFYSDSRK, GRKGGTFDS [Rand] showed nd, nd, nd, nd, nd, nd (controls 0 of 18).
The variant GFTLNSYGIS, VIYSDGRRTFYGDQVK, GRAATTFDS [Ctrl] showed nd, nd, nd, nd, nd, nd (controls 0 of 18).
The variant GFQLESYGIS, VIYSDGRRTFYHDSVK, GRAAGTFDS [GP_Gibbs] showed 0.93, nd, 0.70, 1.79, 1.51, 1.00 (mean 1.19; controls 0 of 18).
The variant GFWLNSYGIS, VIYSDGRRTFYADSVK, GQAAGTFDS [GPLM_Gen] showed nd, 2.43, 1.79, 2.89, 2.12, 1.84 (mean 2.22; controls 0 of 18).
The variant GFTLNSYGIS, VIYSDGRRTFYSDSVK, GRAAGTGDS [Ctrl] showed nd, nd, nd, nd, nd, nd (controls 0 of 18).
The variant GETLNSYGIS, VIYSDGRRTFYSDSVK, GRAAGEFKS [Ctrl] showed nd, nd, nd, nd, 0.97, nd (controls 0 of 18).
The variant KFTLNSYGIS, VIYSDGRRTFYDDSVK, GQEAGTFDS [GP_HC] showed nd, nd, nd, nd, 0.94, nd (controls 0 of 18).
The variant KFDLNSYGIS, VIYSDGRRTFYGDSVK, GRNAGTFDS [GPLM_Gibbs] showed 0.95, nd, nd, nd, 1.34, 2.26 (mean 1.52; controls 0 of 18).
The variant GFSLNSYGIS, VIYSDGRRTFYGDSVK, GKTAGTFDK [GP_Gen] showed 0.99, 0.51, 0.26, 1.42, 0.75, 0.52 (mean 0.74; controls 0 of 18).
The variant GFDLNSYGIS, VIYSDGRRTFYGDSVK, GEAAGTFDR [GP_Gen] showed 2.36, 1.68, nd, 1.56, 2.48, nd (mean 2.02; controls 0 of 18).
The variant GFTLNDYGIS, VIYSDGRRTFYGDAVK, GKTAGTFDA [GP_Gibbs] showed 0.49, 0.32, 0.48, 0.04, 0.62, 0.49 (mean 0.40; controls 0 of 18).
The variant GFTLNLYGIS, VIYSDGRRTFYGDSVK, GRAYGTFCS [Ctrl] showed nd, nd, nd, nd, nd, nd (controls 0 of 18).
The variant GFTLNSYGIS, VIYSDGRRTFYGDSVK, GRMAGTFDL [Ctrl] showed 1.14, nd, nd, nd, 1.19, 1.25 (mean 1.19; controls 0 of 18).
The variant GFTLNEYGIS, VIYSDGRRTMYTDSVK, GREAGTFDS [GP_HC] showed 0.29, 0.01, -0.06, -0.19, 0.18, 0.32 (mean 0.09; controls 1 of 18).
The variant GFTLNSYGIS, VIYSDGQRTFYSDSVK, GKAAGTFDS [GPLM_Gen] showed 0.60, 0.34, 0.45, 0.30, 1.04, 0.56 (mean 0.55; controls 0 of 18).
The variant GFTILSYGIS, VIYSDGRRTFYSDSVK, GRAAGTFDS [Ctrl] showed nd, nd, nd, nd, nd, nd (controls 1 of 18).
The variant GFDLNSYGIS, VIYSDGRRTFYADSVK, GRQAGTFDA [GP_Gen] showed 0.07, -0.38, -0.63, -0.28, -0.38, -0.30 (mean -0.32; controls 0 of 18).
The variant GFTLNEYGIS, VIYSDGWRTFYTDSVK, GRFAGTFDS [GPLM_HC] showed 0.96, 1.47, 0.59, 1.12, 1.66, 1.08 (mean 1.15; controls 0 of 18).
The variant GFSLNSFGIS, VDYSDGRRTFYHDSVK, GRAAGTFDS [Ctrl] showed nd, nd, nd, nd, nd, nd (controls 0 of 18).
The variant GFTLNSYGIS, VIYSDGRRTAYSDSVK, GRAAGTFDS [Ctrl+GPLM_HC] showed 0.78, 0.48, 0.50, 0.85, 0.60, 0.73; 0.26, 0.55, 1.34, 1.11, -0.09, 0.94 (mean 0.67; controls 1 of 36).
The variant GFTLESYGIS, VIYSDGRRTFYEDSVK, GRAAGTFDS [Ctrl] showed nd, nd, nd, nd, nd, nd (controls 0 of 18).
The variant GFTLNDYGIS, VIYSDGRRTQYIDSVK, GRSAGTFDS [GPLM_HC] showed 0.85, 0.55, 1.17, 0.80, 1.44, 0.69 (mean 0.92; controls 0 of 18).
The variant GFTLNSYGIS, VIYSDGRRTFYGDAVK, GRADGTFDS [Ctrl] showed nd, nd, nd, nd, nd, nd (controls 0 of 18).
The variant GFTVNEYGIS, VIYSDGRRTFYTDSVK, GGFAGTFDS [Rand] showed nd, nd, nd, nd, nd, nd (controls 0 of 18).

Source: Li et al. 2023 (doi:10.1038/s41467-023-39022-2), MIT Lincoln Laboratory and A-Alpha Bio; data file from the FLAb repository.